Assay results taken from PMC4515084 (Chemmedchem, 2015).

Test: Pharmacokinetic studies in rats
Conditions: rodents / rats

With `CC1=C(C#N)[C@@H](c2ccc(C#N)cc2S(C)(=O)=O)N(C)C(=O)N1c1cccc(C(F)(F)F)c1` [Compound 29, (4S)-4-[4-Cyano-2-(methylsulfonyl)phenyl]-3,6-dimethyl-2-oxo-1-[3-(trifluoromethyl)phenyl]-1,2,3,4-tetrahydropyrimidine-5-carbonitrile] the “clearance” value was “low clearance”.
